ChEMBL document CHEMBL3870325 (Bioorg Med Chem, 2017)

Species: Homo sapiens
Test: Selectivity ratio of IC50 for HER2 (unknown origin) to IC50 for wild-type EGFR (unknown origin)

O=C(CCCCCn1cc(-c2ccc3ncnc(Nc4ccc(OCc5cccc(F)c5)c(Cl)c4)c3c2)nn1)NO
Ratio IC50: > 100
